PubChem BioAssay (NCI)
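These data come from cells grown in 96-well plates and exposed to compound for 48 hours at five concentrations. The concentration for 50% growth inhibition is given as GI50. TGI marks complete inhibition of growth.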

Tests used:
Assay in all cases: NCI-60 cell line screen, 48 h
SK-MEL-5 melanoma = test system: SK-MEL-5 melanoma
UACC-62 melanoma = test system: UACC-62 melanoma
NCI-H23 lung = test system: NCI-H23 lung
A498 renal = test system: A498 renal
M14 melanoma = test system: M14 melanoma
CCRF-CEM leukemia = test system: CCRF-CEM leukemia
NCI-H522 lung = test system: NCI-H522 lung
NCI-H322M lung = test system: NCI-H322M lung
SW-620 colon = test system: SW-620 colon
M19-MEL melanoma = test system: M19-MEL melanoma
LOX IMVI melanoma = test system: LOX IMVI melanoma
HOP-62 NSCLC = test system: HOP-62 NSCLC
786-0 renal = test system: 786-0 renal
SNB-78 CNS = test system: SNB-78 CNS
SK-MEL-28 melanoma = test system: SK-MEL-28 melanoma
SK-MEL-2 melanoma = test system: SK-MEL-2 melanoma
SNB-19 CNS = test system: SNB-19 CNS
IGROV1 ovarian = test system: IGROV1 ovarian
LXFL 529 NSCLC = test system: LXFL 529 NSCLC
SNB-75 CNS = test system: SNB-75 CNS
OVCAR-4 ovarian = test system: OVCAR-4 ovarian
U251 CNS = test system: U251 CNS
OVCAR-8 ovarian = test system: OVCAR-8 ovarian
ACHN renal = test system: ACHN renal
HCT-15 colon = test system: HCT-15 colon
DLD-1 colon = test system: DLD-1 colon
SF-539 CNS = test system: SF-539 CNS
HCT-116 colon = test system: HCT-116 colon
MOLT-4 leukemia = test system: MOLT-4 leukemia
A549 NSCLC = test system: A549 NSCLC
MALME-3M melanoma = test system: MALME-3M melanoma
SF-268 CNS = test system: SF-268 CNS
SR leukemia = test system: SR leukemia
K-562 leukemia = test system: K-562 leukemia
OVCAR-5 ovarian = test system: OVCAR-5 ovarian
HCC-2998 colon = test system: HCC-2998 colon
EKVX NSCLC = test system: EKVX NSCLC
HT29 colon = test system: HT29 colon
HL-60(TB) leukemia = test system: HL-60(TB) leukemia
COLO 205 colon = test system: COLO 205 colon
DMS 114 small cell lung = test system: DMS 114 small cell lung
KM12 colon = test system: KM12 colon
KM20L2 colon = test system: KM20L2 colon
SK-OV-3 ovarian = test system: SK-OV-3 ovarian
RXF 393 renal = test system: RXF 393 renal
SN12C renal = test system: SN12C renal
HOP-18 NSCLC = test system: HOP-18 NSCLC
DMS 273 small cell lung = test system: DMS 273 small cell lung
NCI-H460 lung = test system: NCI-H460 lung
UO-31 renal = test system: UO-31 renal
OVCAR-3 ovarian = test system: OVCAR-3 ovarian

Question: Which GI50 (SK-MEL-5 melanoma) does the source give for `CN1C(=O)N(C)P12(Cl)N(C)C(=O)N2C` here?
Answer: > 100 µM

Question: And the TGI (SK-MEL-5 melanoma)?
Answer: > 100 µM

Question: What about the GI50 (UACC-62 melanoma) of the same molecule?
Answer: > 100 µM

Question: And the TGI (UACC-62 melanoma)?
Answer: > 100 µM

Question: What about the GI50 (NCI-H23 lung) of the same molecule?
Answer: > 100 µM

Question: And the TGI (NCI-H23 lung)?
Answer: > 100 µM

Question: What about the GI50 (A498 renal) of the same molecule?
Answer: > 100 µM

Question: What about the TGI (A498 renal) of the same molecule?
Answer: > 100 µM

Question: What about the GI50 (M14 melanoma) of the same molecule?
Answer: > 100 µM

Question: And the TGI (M14 melanoma)?
Answer: > 100 µM

Question: What about the GI50 (CCRF-CEM leukemia) of the same molecule?
Answer: > 100 µM

Question: What about the TGI (CCRF-CEM leukemia) of the same molecule?
Answer: > 100 µM

Question: What about the GI50 (NCI-H522 lung) of the same molecule?
Answer: > 100 µM

Question: And the TGI (NCI-H522 lung)?
Answer: > 100 µM

Question: What about the GI50 (NCI-H322M lung) of the same molecule?
Answer: > 100 µM

Question: And the TGI (NCI-H322M lung)?
Answer: > 100 µM

Question: And the GI50 (SW-620 colon)?
Answer: > 100 µM

Question: What about the TGI (SW-620 colon) of the same molecule?
Answer: > 100 µM

Question: And the GI50 (M19-MEL melanoma)?
Answer: > 100 µM

Question: What about the TGI (M19-MEL melanoma) of the same molecule?
Answer: > 100 µM

Question: What about the GI50 (LOX IMVI melanoma) of the same molecule?
Answer: > 100 µM

Question: And the TGI (LOX IMVI melanoma)?
Answer: > 100 µM

Question: And the GI50 (HOP-62 NSCLC)?
Answer: > 100 µM

Question: What about the TGI (HOP-62 NSCLC) of the same molecule?
Answer: > 100 µM

Question: What about the GI50 (786-0 renal) of the same molecule?
Answer: > 100 µM

Question: And the TGI (786-0 renal)?
Answer: > 100 µM

Question: What about the GI50 (SNB-78 CNS) of the same molecule?
Answer: > 100 µM

Question: What about the TGI (SNB-78 CNS) of the same molecule?
Answer: > 100 µM

Question: What about the GI50 (SK-MEL-28 melanoma) of the same molecule?
Answer: > 100 µM

Question: What about the TGI (SK-MEL-28 melanoma) of the same molecule?
Answer: > 100 µM

Question: And the GI50 (SK-MEL-2 melanoma)?
Answer: > 100 µM

Question: And the TGI (SK-MEL-2 melanoma)?
Answer: > 100 µM

Question: And the GI50 (SNB-19 CNS)?
Answer: > 100 µM

Question: What about the TGI (SNB-19 CNS) of the same molecule?
Answer: > 100 µM

Question: And the GI50 (IGROV1 ovarian)?
Answer: > 100 µM

Question: And the TGI (IGROV1 ovarian)?
Answer: > 100 µM

Question: What about the GI50 (LXFL 529 NSCLC) of the same molecule?
Answer: > 100 µM

Question: And the TGI (LXFL 529 NSCLC)?
Answer: > 100 µM

Question: What about the GI50 (SNB-75 CNS) of the same molecule?
Answer: > 100 µM

Question: And the TGI (SNB-75 CNS)?
Answer: > 100 µM

Question: And the GI50 (OVCAR-4 ovarian)?
Answer: > 100 µM

Question: What about the TGI (OVCAR-4 ovarian) of the same molecule?
Answer: > 100 µM

Question: And the GI50 (U251 CNS)?
Answer: > 100 µM

Question: What about the TGI (U251 CNS) of the same molecule?
Answer: > 100 µM

Question: What about the GI50 (OVCAR-8 ovarian) of the same molecule?
Answer: > 100 µM

Question: What about the TGI (OVCAR-8 ovarian) of the same molecule?
Answer: > 100 µM

Question: What about the GI50 (ACHN renal) of the same molecule?
Answer: > 100 µM

Question: And the TGI (ACHN renal)?
Answer: > 100 µM

Question: What about the GI50 (HCT-15 colon) of the same molecule?
Answer: > 100 µM

Question: What about the TGI (HCT-15 colon) of the same molecule?
Answer: > 100 µM

Question: And the GI50 (DLD-1 colon)?
Answer: > 100 µM

Question: And the TGI (DLD-1 colon)?
Answer: > 100 µM

Question: And the GI50 (SF-539 CNS)?
Answer: > 100 µM

Question: What about the TGI (SF-539 CNS) of the same molecule?
Answer: > 100 µM

Question: And the GI50 (HCT-116 colon)?
Answer: > 100 µM

Question: What about the TGI (HCT-116 colon) of the same molecule?
Answer: > 100 µM

Question: And the GI50 (MOLT-4 leukemia)?
Answer: > 100 µM

Question: What about the TGI (MOLT-4 leukemia) of the same molecule?
Answer: > 100 µM

Question: What about the GI50 (A549 NSCLC) of the same molecule?
Answer: > 100 µM

Question: What about the TGI (A549 NSCLC) of the same molecule?
Answer: > 100 µM

Question: What about the GI50 (MALME-3M melanoma) of the same molecule?
Answer: > 100 µM

Question: And the TGI (MALME-3M melanoma)?
Answer: > 100 µM

Question: What about the GI50 (SF-268 CNS) of the same molecule?
Answer: > 100 µM

Question: And the TGI (SF-268 CNS)?
Answer: > 100 µM

Question: What about the GI50 (SR leukemia) of the same molecule?
Answer: > 100 µM

Question: And the TGI (SR leukemia)?
Answer: > 100 µM

Question: And the GI50 (K-562 leukemia)?
Answer: > 100 µM

Question: And the TGI (K-562 leukemia)?
Answer: > 100 µM

Question: And the GI50 (OVCAR-5 ovarian)?
Answer: > 100 µM

Question: What about the TGI (OVCAR-5 ovarian) of the same molecule?
Answer: > 100 µM

Question: What about the GI50 (HCC-2998 colon) of the same molecule?
Answer: > 100 µM

Question: And the TGI (HCC-2998 colon)?
Answer: > 100 µM

Question: What about the GI50 (EKVX NSCLC) of the same molecule?
Answer: > 100 µM

Question: And the TGI (EKVX NSCLC)?
Answer: > 100 µM

Question: What about the GI50 (HT29 colon) of the same molecule?
Answer: > 100 µM

Question: And the TGI (HT29 colon)?
Answer: > 100 µM

Question: And the GI50 (HL-60(TB) leukemia)?
Answer: > 100 µM

Question: What about the TGI (HL-60(TB) leukemia) of the same molecule?
Answer: > 100 µM

Question: And the GI50 (COLO 205 colon)?
Answer: > 100 µM

Question: What about the TGI (COLO 205 colon) of the same molecule?
Answer: > 100 µM

Question: What about the GI50 (DMS 114 small cell lung) of the same molecule?
Answer: > 100 µM

Question: And the TGI (DMS 114 small cell lung)?
Answer: > 100 µM

Question: What about the GI50 (KM12 colon) of the same molecule?
Answer: > 100 µM

Question: What about the TGI (KM12 colon) of the same molecule?
Answer: > 100 µM

Question: What about the GI50 (KM20L2 colon) of the same molecule?
Answer: > 100 µM

Question: What about the TGI (KM20L2 colon) of the same molecule?
Answer: > 100 µM

Question: And the GI50 (SK-OV-3 ovarian)?
Answer: > 100 µM

Question: And the TGI (SK-OV-3 ovarian)?
Answer: > 100 µM

Question: And the GI50 (RXF 393 renal)?
Answer: > 100 µM

Question: What about the TGI (RXF 393 renal) of the same molecule?
Answer: > 100 µM

Question: And the GI50 (SN12C renal)?
Answer: > 100 µM

Question: What about the TGI (SN12C renal) of the same molecule?
Answer: > 100 µM

Question: What about the GI50 (HOP-18 NSCLC) of the same molecule?
Answer: > 100 µM

Question: What about the TGI (HOP-18 NSCLC) of the same molecule?
Answer: > 100 µM

Question: And the GI50 (DMS 273 small cell lung)?
Answer: > 100 µM

Question: What about the TGI (DMS 273 small cell lung) of the same molecule?
Answer: > 100 µM

Question: What about the GI50 (NCI-H460 lung) of the same molecule?
Answer: > 100 µM

Question: What about the TGI (NCI-H460 lung) of the same molecule?
Answer: > 100 µM

Question: And the GI50 (UO-31 renal)?
Answer: > 100 µM

Question: And the TGI (UO-31 renal)?
Answer: > 100 µM

Question: And the GI50 (OVCAR-3 ovarian)?
Answer: > 100 µM

Question: What about the TGI (OVCAR-3 ovarian) of the same molecule?
Answer: > 100 µM
